The text below walks through data of patent US20120115806A1, “Antitumor Combination Including Cabazitaxel and Capecitabine” (SANOFI, priority 2009, published 2012).

This series concerns patients with metastatic breast cancer previously treated with anthracyclines and taxanes. To be noted: cabazitaxel (D1) in combination with capecitabine (twice a day, D1-14).

With “4α-acetoxy-2α-benzoyloxy-5β,20-epoxy-1β-hydroxy-β,10β-dimethoxy-9-oxotax-11-en-13α-yl (2R,3S)-3-tert-butoxycarbonylamino-2-hydroxy-3-phenylpropionate [cabazitaxel]”, the “maximal administered dose (MAD)” value amounted to 25 mg/m^2. Besides, the “recommended dose (RD)” value (highest dose at which less than 33% of patients exhibited a DLT) came out at 20 mg/m^2.
